Molecules are shown by their SMILES. The entries are a selection whose mix differs from that of the whole data set. Some tests of the compounds listed are not included; inactive here does not mean inactive elsewhere. Calls of active or inactive are those of the source. Calls come from the whole dose curve; as a rule, active = well fitted inhibition curve with a large enough effect; inconclusive = small, poorly fitted or top-dose-only effect, or another doubt; inactive = no such curve, though single readings can be large or run the other way.
% is set by controls: 0 for no effect and ±100 for the full control effect.

Sequences of proteins named here, by UniProt entry; tags and fusion partners are left off.
UniProt Q27686, whole entry: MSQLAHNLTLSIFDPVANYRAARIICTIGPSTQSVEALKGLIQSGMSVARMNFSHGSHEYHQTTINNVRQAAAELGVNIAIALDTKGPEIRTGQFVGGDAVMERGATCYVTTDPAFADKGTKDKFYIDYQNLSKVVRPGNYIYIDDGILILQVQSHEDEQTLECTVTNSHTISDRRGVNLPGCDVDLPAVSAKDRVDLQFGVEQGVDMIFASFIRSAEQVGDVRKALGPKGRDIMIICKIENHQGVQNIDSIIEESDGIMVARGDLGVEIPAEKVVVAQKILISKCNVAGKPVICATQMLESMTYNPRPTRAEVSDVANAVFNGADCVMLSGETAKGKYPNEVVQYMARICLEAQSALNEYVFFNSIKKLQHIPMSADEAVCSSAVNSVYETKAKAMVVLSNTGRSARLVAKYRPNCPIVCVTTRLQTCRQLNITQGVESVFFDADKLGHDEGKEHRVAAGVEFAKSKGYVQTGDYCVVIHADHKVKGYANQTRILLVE

The test concerns the target Pyruvate kinase (Leishmania mexicana) (UniProt Q27686). Description: qHTS Assay for Inhibitors of Leishmania Mexicana Pyruvate Kinase (LmPK). The settings on record: purified LmPK, Kinase-Glo ATP luminescence, 1 h; at 57.5 µM (top of the series). The source says: NIH Chemical Genomics Center [NCGC] Malcolm Walkinshaw, Hugh Morgan, Linda Gilmore University of Edinburgh, UK MLPCN Grant: 1 R03 MH085697-01 NCGC Assay Overview: Pyruvate kinase (L. Mexicana) (LmPK) enzyme was supplied as a highly purified (>95% pure) sulphate-free preparation from University of Edinburgh, UK and assayed for its ability to generate ATP from ADP using phosphoenolpyruvate (PEP) as a substrate. ATP generation was detected in a coupled reaction by luciferase-mediated luminescence, an ATP-dependent process. […] The enzyme was assayed at an intermediate level of activity to screen for both inhibitors and activators.
NCGC Assay Protocol Summary: Three uL of enzyme mix (kept on ice) in assay buffer (50 mM Imidazole pH7.2, 50 mM KCl, 7 mM MgCl2, 0.01% Tween 20, 0.05% BSA) containing PEP (0.5 mM final concentration) and LmPK (0.1 nM final concentration) was dispensed into white solid bottom 1,536 well microtiter plates. 23 nL of compound were delivered by a pin tool and 1 uL of ADP mix in assay buffer (r.t; 0.1 mM final ADP concentration) was added. Plates were incubated at room temperature for 1 hour. Two uL of detection mix (Kinase-Glo, Promega; at 4 degree Celsius protected from light) was added and luminescence read by a ViewLux (Perkin Elmer) at 1 second exposure/plate. Data were normalized to the uninhibited and AC100 inhibition (no enzyme). […]
In general terms: In qHTS, concentration-response curves come from the screen itself.
Take `C=CCN1CCN(CCOC(=O)C(O)(c2ccccc2)c2ccccc2)CC1`: the activity change, negative = inhibition is inactive: 1.53%.

`CC(C)N1C(=O)CC2(CCN(CCOC(=O)C(O)(c3ccccc3)c3ccccc3)CC2)C1=O`: the activity change, negative = inhibition is inactive: 2.55%.
